From PubChem BioAssay AID720700 (The Scripps Research Institute Molecular Screening Center, 2013)
The list shows a part of the results, in another mix than the full data. Some salts and complexes are drawn in separate pieces, as the source files them; their charges need not balance. Activity calls are given as the source filed them. Cut-off read from the data, not from the text of the source: active = inhibition above about 9.5%; inactive = the rest.

Chains of the proteins cited; added tags and fusions are not shown.
UniProt P19174, whole entry: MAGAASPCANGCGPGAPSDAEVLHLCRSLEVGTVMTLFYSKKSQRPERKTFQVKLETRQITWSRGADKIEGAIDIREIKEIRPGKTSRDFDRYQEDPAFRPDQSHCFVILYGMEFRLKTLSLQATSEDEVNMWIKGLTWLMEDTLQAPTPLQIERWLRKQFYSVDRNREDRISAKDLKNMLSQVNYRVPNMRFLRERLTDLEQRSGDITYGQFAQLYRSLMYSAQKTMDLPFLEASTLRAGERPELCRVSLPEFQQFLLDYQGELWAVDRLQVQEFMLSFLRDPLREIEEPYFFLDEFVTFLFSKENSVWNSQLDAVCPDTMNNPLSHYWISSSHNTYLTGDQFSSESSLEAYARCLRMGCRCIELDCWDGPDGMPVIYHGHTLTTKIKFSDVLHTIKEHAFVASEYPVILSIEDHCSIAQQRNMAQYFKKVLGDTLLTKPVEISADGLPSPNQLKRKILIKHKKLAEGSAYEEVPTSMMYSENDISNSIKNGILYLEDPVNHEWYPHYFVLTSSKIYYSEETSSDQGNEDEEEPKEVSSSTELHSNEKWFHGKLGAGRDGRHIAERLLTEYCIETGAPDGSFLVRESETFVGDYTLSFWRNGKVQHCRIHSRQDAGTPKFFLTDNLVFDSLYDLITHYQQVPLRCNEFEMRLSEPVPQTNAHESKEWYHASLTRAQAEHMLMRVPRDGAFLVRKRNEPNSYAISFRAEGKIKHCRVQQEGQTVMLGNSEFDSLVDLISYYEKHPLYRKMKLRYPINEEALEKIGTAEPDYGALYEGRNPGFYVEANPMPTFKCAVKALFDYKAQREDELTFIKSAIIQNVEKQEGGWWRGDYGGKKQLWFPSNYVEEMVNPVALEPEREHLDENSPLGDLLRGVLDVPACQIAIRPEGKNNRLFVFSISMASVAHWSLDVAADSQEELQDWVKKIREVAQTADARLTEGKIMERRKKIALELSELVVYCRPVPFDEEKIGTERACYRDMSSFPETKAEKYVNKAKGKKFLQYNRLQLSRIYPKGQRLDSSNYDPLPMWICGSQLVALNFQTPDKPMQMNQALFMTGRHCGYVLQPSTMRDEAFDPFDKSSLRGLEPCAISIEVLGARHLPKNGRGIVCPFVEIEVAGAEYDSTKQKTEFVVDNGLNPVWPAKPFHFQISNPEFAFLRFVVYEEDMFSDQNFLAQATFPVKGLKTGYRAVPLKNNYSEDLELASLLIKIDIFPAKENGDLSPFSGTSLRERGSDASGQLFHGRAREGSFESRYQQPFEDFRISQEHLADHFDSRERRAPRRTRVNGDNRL

Biological target: 1-phosphatidylinositol 4,5-bisphosphate phosphodiesterase gamma-1 (Homo sapiens) (UniProt P19174)
Assay: PLC-gamma1 enzyme inhibitors, primary screen, biochemical, fluorescence, purified enzyme (AID 720700)
Details: purified PLC-gamma1, fluorogenic substrate, at 12.2 µM, hits give high values

SMILES	inhibition
O=C(OC1CN2CCC1CC2)c1ccc([N+](=O)[O-])cc1 (stereo unspecified)	inactive: 9.14%
O=C(OCCN1CCN(CCOCc2ccccc2)CC1)C(O)(c1ccccc1)c1ccccc1	inactive: 2.13%
COc1ccc2c(c1O)-c1c(O)c(OC)cc3c1[C@H](C2)[N+](C)(C)CC3.O=[N+]([O-])c1cc([N+](=O)[O-])c([O-])c([N+](=O)[O-])c1[O-]	inactive: -224%
O=[N+]([O-])c1cc([N+](=O)[O-])c(Nc2ccc(Cl)cc2)c([N+](=O)[O-])c1	inactive: 5.59%
CP(=O)(Nc1ccccc1F)Oc1ccccc1 (stereo unspecified)	inactive: -0.83%
CC(C)c1ccc(OP(C)(=O)Nc2ccc(SC(F)(F)F)cc2)cc1 (stereo unspecified)	inactive: 2.33%
Cc1c([N+](=O)[O-])cc([N+](=O)[O-])c(Br)c1[N+](=O)[O-]	inactive: 8.14%
CCN(CC)CCCOC(=O)C(O)(c1ccccc1)C1CCCCC1 (stereo unspecified)	inactive: 8.22%
CP(=O)(Nc1ccccc1)Oc1ccc(F)cc1 (stereo unspecified)	inactive: 1.6%
O=[N+]([O-])c1cc([N+](=O)[O-])c(OC2CCCCC2O)c([N+](=O)[O-])c1 (stereo unspecified)	inactive: 0.86%
CCCCCOc1ccc(NP(C)(=O)Oc2ccc(Cl)cc2Cl)cc1 (stereo unspecified)	inactive: 1.86%
CCN(CC)CCCNc1ccccc1[N+](=O)[O-].O=[N+]([O-])c1cc([N+](=O)[O-])c(O)c([N+](=O)[O-])c1	inactive: 2.48%
CCOC(=O)c1ccc(NP(C)(=O)Oc2ccc(F)cc2)cc1 (stereo unspecified)	inactive: -0.25%
COc1ccc(OP(C)(=O)Nc2ccc(SC(F)(F)F)cc2)cc1 (stereo unspecified)	inactive: 0.32%
O=[N+]([O-])c1ccc(OP2(=O)COCCO2)cc1 (stereo unspecified)	inactive: 2.49%
Cc1cc(-c2cccc3ccccc23)c(C)cn1.O=[N+]([O-])c1cc([N+](=O)[O-])c(O)c([N+](=O)[O-])c1	inactive: -2.08%
O=[N+]([O-])c1cc([N+](=O)[O-])c(NCC2CCS(=O)(=O)C2)c([N+](=O)[O-])c1 (stereo unspecified)	inactive: -0.5%
Cc1c(C(c2ccc3c(c2)OCO3)c2c(C)n(C)n(-c3ccccc3)c2=O)c(=O)n(-c2ccccc2)n1C.O=[N+]([O-])c1cc([N+](=O)[O-])c(O)c([N+](=O)[O-])c1	inactive: -1.31%
COc1ccc(OP(C)(=O)Nc2cccc(Br)c2)cc1 (stereo unspecified)	inactive: 3.4%
CN(C)CCOC(=O)C(O)(c1ccccc1)C1CCCCC1 (stereo unspecified)	inactive: 4.91%
COc1ccc(NP(C)(=O)Oc2ccccc2OC)cc1 (stereo unspecified)	inactive: -0.55%
CP(=O)(Nc1ccc2c(c1)OCCO2)Oc1ccccc1 (stereo unspecified)	inactive: 2.9%
Cc1ccccc1NP(C)(=O)Nc1ccccc1C	inactive: 1.71%
O=[N+]([O-])c1cc([N+](=O)[O-])c(C(F)(F)F)c([N+](=O)[O-])c1O	active: 11.8%

SMILES	inhibition
CP(=O)(Nc1ccc(SC(F)(F)F)cc1)Oc1ccc(F)cc1 (stereo unspecified)	inactive: 3.34%
CCOP(C)(=S)SCC(=O)NC(C)(CC)C(=O)O (stereo unspecified)	inactive: 2.85%
CCOP(=O)(CC)OCC	inactive: -2.44%
O=[N+]([O-])c1cc([N+](=O)[O-])c(-c2cnn(-c3ccccc3)c2)c([N+](=O)[O-])c1	inactive: -1.61%
Cc1nc2ccc3ccccc3c2s1.O=[N+]([O-])c1cc([N+](=O)[O-])c(O)c([N+](=O)[O-])c1	active: 11.3%
O=[N+]([O-])c1cc([N+](=O)[O-])c(-n2nnc3ccccc32)c([N+](=O)[O-])c1	inactive: -2.28%
CN(Cc1cccnc1)C(=O)COc1ccc(Cl)c(Cl)c1.O=[N+]([O-])c1cc([N+](=O)[O-])c(O)c([N+](=O)[O-])c1	inactive: 2.62%
CN1CCCCC1COC(=O)C1(O)c2ccccc2CCc2ccccc21 (stereo unspecified)	inactive: 3.36%
COc1ccccc1OP(C)(=O)Nc1c(C)cccc1C (stereo unspecified)	inactive: 0.79%
COc1ccc(-c2ccccn2)cc1.O=[N+]([O-])c1cc([N+](=O)[O-])c(O)c([N+](=O)[O-])c1	inactive: -0.09%
CCCOc1ccc(NP(C)(=O)Oc2ccc(Cl)cc2)cc1 (stereo unspecified)	inactive: -0.9%
CP(=O)(Nc1ccc(SC(F)(F)F)cc1)Oc1ccccc1 (stereo unspecified)	inactive: -2.3%
O=[N+]([O-])c1cc([N+](=O)[O-])c(Nc2nnnn2CCO)c([N+](=O)[O-])c1	inactive: 4.08%
CCOC(=O)C(CC)C1=NC(C)(C)Cc2ccccc21.O=[N+]([O-])c1cc([N+](=O)[O-])c(O)c([N+](=O)[O-])c1 (stereo unspecified)	inactive: 3.13%
CC1=NCCc2c1[nH]c1ccccc21.O=[N+]([O-])c1cc([N+](=O)[O-])c(O)c([N+](=O)[O-])c1	inactive: -133%
O=C(O)c1cccc(Nc2c([N+](=O)[O-])cc([N+](=O)[O-])cc2[N+](=O)[O-])c1	inactive: 7.69%
Cc1ccc(C)c(NP(C)(=O)Oc2ccccc2)c1 (stereo unspecified)	inactive: 1.84%
Cc1cc(C)cc(OP(C)(=O)Nc2ccccn2)c1 (stereo unspecified)	inactive: -0.36%
CP(=O)(Nc1cccc(Br)c1)Oc1ccccc1 (stereo unspecified)	inactive: 2.08%
COc1ccccc1OP(C)(=O)Nc1cccc(Br)c1 (stereo unspecified)	inactive: 2.26%
CCOC(=O)c1ccc(NP(C)(=O)Oc2cc(C)cc(C)c2)cc1 (stereo unspecified)	inactive: 4.31%
Cc1cc(C)cc(OP(C)(=O)Nc2ccc(C)cc2C)c1 (stereo unspecified)	inactive: 5.69%
COc1ccccc1-c1ccccn1.O=[N+]([O-])c1cc([N+](=O)[O-])c(O)c([N+](=O)[O-])c1	inactive: 0.19%
CCN(CC)CCCOC(=O)C(O)(c1ccccc1)c1ccccc1	inactive: 3.89%

SMILES	inhibition
COc1ccccc1OP(C)(=O)Nc1ccc(C)cc1 (stereo unspecified)	inactive: 3.99%
Cc1ccc(NP(C)(=O)Oc2ccccc2)c(C)c1 (stereo unspecified)	inactive: -0.43%
CCOC(=O)c1ccc(NP(C)(=O)Oc2ccccc2)cc1 (stereo unspecified)	inactive: -0.55%
Cc1cc(C)cc(OP(C)(N)=O)c1 (stereo unspecified)	inactive: 2.16%
COc1ccccc1OP(C)(=O)Nc1cc(Cl)ccc1C (stereo unspecified)	inactive: 0.04%
COc1ccc(OP(C)(=O)Nc2cccc(F)c2)cc1 (stereo unspecified)	inactive: 1.38%
O=[N+]([O-])c1cc([N+](=O)[O-])c(Nc2cccnc2)c([N+](=O)[O-])c1	inactive: 4.02%
O=[N+]([O-])c1ccc2c(c1)C=Nc1ccccc1O2	inactive: 0.13%
CC(C)(C)c1ccc(OP(C)(=O)Nc2ccc(SC(F)(F)F)cc2)cc1 (stereo unspecified)	inactive: -0.07%
Cc1cccc(C)c1OP(C)(N)=O (stereo unspecified)	inactive: 3.33%
CP(=S)(Nn1cnnc1)Oc1ccccc1 (stereo unspecified)	inactive: 0.56%
CP(=O)(Nc1ccccc1Br)Oc1ccccc1 (stereo unspecified)	inactive: -1.69%
COc1ccccc1OP(C)(=O)Nc1ccccc1 (stereo unspecified)	inactive: 0.9%
O=[N+]([O-])c1cc([N+](=O)[O-])c(O)c([N+](=O)[O-])c1.c1ccc(Oc2ccncc2)cc1	inactive: 2.3%
CCOC(=O)c1ccc(NP(C)(=O)Oc2ccc(OC)cc2)cc1 (stereo unspecified)	inactive: -0.52%
CCOP(C)(=S)SCC(=O)NC(C)C(=O)O (stereo unspecified)	inactive: -1.6%
CP(=O)(Nc1ccccn1)Oc1ccc(Cl)cc1 (stereo unspecified)	inactive: -1.47%
CP(=O)(Nc1ccc(SC(F)(F)F)cc1)Oc1ccc(Cl)cc1 (stereo unspecified)	inactive: -1.75%
Cc1cccc(C)c1OP(C)(=O)Nc1ccc(SC(F)(F)F)cc1 (stereo unspecified)	inactive: -10.1%
CP(=O)(Oc1ccccc1)OC(c1ccccc1)C(F)(F)F (stereo unspecified)	inactive: 0.64%
CP(=O)(NC(=O)Nc1ccccc1)Oc1ccccc1 (stereo unspecified)	inactive: 0.89%
CCc1ccc(OP(C)(=O)N2CCN(c3ccc([N+](=O)[O-])cc3)CC2)cc1 (stereo unspecified)	inactive: 2.48%
Cc1cc(C)cc(OP(C)(=O)Nc2ccc(SC(F)(F)F)cc2)c1 (stereo unspecified)	inactive: 0.43%
